Here are results for one compound from paper PMC2783604 (Synapse (New York, N.Y.), 2009).

Sequences of proteins named here, by UniProt entry; tags and fusion partners are left off. A change or cut given only in a name is not applied to a line headed by its entry.
UniProt P14416, whole entry: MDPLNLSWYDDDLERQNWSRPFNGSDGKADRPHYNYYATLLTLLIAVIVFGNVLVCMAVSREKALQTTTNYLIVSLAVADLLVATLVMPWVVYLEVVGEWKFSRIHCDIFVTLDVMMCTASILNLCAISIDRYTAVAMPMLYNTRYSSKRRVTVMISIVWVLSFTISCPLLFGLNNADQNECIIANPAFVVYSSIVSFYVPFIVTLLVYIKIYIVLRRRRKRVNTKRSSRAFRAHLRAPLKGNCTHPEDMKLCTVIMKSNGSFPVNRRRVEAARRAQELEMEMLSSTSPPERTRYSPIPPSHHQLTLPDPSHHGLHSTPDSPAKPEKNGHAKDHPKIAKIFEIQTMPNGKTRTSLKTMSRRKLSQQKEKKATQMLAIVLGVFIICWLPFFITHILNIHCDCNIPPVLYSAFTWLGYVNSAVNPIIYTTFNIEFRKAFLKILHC

In the assay the target is dopamine D2L receptor (hD2L) (Homo sapiens, UniProt P14416). In words: radioligand saturation binding.

As a reminder, the Kd is the equilibrium constant for the complex coming apart. Lower therefore signals a tighter complex.

`CCN1CCC[C@H]1CNC(=O)c1c(O)c(Cl)cc(Cl)c1OC` [[^3H]raclopride] yielded a dissociation constant (Kd) of 1.6 ± 0.1 nM.
